pIC50: −log10 of the molar value. Like-named read-outs stand apart in the source and are kept apart here.
Tests used:
[1] = molecular target: PCSK9/LDLR interaction (His-tagged PCSK9, recombinant LDLR-AB domain) (Homo sapiens, UniProt Q8NBP7); assay: PCSK9/LDLR binding in vitro ELISA (Circulex kit)
Protocol: For screening inhibitors of the PCSK9/LDLR interaction, different concentrations (0.01 nM-100 μM) of selected compounds were incubated with His-tagged PCSK9 and then added to wells that were pre-coated with recombinant LDLR-AB domain. After incubation, the plate was washed and the amount of recombinant His-tagged PCSK9 was measured using the biotinylated anti-His-tag and horseradish peroxidase conjugated Streptavidin, and quantitated using a BioTek Synergy 2 plate reader. The effect of each compound on the PCSK9 binding to the recombinant LDLR-AB domain was calculated.
Testing of compounds acquired from commercial sources was performed in our binding assay for their potential to inhibit the PCSK9/LDLR interaction. Initial screening was done using 100 μM of the compounds. Each compound was added to the binding reaction mixture in triplicate and assayed as described above. From the screening, a number of compounds were identified to have an effect on LDLR upregulation as compared to control (see Example 3 vide infra) while having no effect on PCSK9 processing and secretion (see Example 2 vide infra). Exemplary 2-carboxyanilide indoles and 2-carboxanilide pyrroles of the formula I that had >20% inhibition at 100 uM are shown in FIG. 1. Fifty five (55) structurally related 2-carboxyanlide benzofurans (compounds of the formulas II-IV) were also acquired. Compounds that inhibited the PCSK9/LDLR interaction were selected and analyzed using different compound concentrations ranging from 100 μM to 0.01 nM. […] (FIG. 4). Based on this preliminary SAR, an additional 34 compounds were designed and synthesized around SBC-115,337, and the compounds were tested in our binding assay as described in FIG. 4. From the screening, a number of benzofuran compounds were determined to have IC50's>10 uM but less </=50 uM (FIG. 2).

Sequences of proteins named here, by UniProt entry; tags and fusion partners are left off. Residues count along the entry.
UniProt Q8NBP7, 153-692 limits assumed: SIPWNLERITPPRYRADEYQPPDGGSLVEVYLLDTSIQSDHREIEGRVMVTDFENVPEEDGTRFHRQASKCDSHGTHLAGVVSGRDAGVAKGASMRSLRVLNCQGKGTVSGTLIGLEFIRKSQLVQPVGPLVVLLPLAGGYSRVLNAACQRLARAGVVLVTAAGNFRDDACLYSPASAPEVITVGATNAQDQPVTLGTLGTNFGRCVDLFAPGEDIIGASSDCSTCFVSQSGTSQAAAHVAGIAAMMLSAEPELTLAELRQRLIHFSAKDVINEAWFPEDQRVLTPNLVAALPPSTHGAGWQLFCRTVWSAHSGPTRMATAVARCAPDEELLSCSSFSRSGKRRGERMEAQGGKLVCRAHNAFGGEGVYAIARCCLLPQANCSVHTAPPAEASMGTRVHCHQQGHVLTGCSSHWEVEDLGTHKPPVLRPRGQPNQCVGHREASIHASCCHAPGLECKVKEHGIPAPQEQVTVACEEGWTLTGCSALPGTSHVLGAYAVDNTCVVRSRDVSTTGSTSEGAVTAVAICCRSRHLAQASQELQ
UniProt Q8NBP7, 31-152 partner limits assumed: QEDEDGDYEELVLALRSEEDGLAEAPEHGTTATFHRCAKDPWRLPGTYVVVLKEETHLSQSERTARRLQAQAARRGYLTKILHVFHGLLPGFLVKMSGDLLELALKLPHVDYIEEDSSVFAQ

[2] = tested on: HepG2 cells; assay: Uptake of fluorescent Dil-LDL in HepG2 cells transfected with PCSK9; conditions: 1.2 uM compound
Protocol: The SBC compounds were validated for their ability to increase uptake of Fluorescent Dil-LDL in HepG2 cells.
The SBC compounds were validated for their ability to increase uptake of Fluorescent Dil-LDL in HepG2 cells as described in FIG. 9.
In order to confirm that these PCSK9 antagonists upregulate functional LDLR, we tested the ability of these compounds to enhance the uptake of fluorescent Dil-LDL in HepG2 cells. Briefly, HepG2 cells transfected with PCSK9 (FIG. 4) were plated and allowed to grow overnight. Compounds were added to the cells followed by the addition of fluorescent Dil-LDL. Cells were washed extensively, and the fluorescent Dil-LDL taken up by the cells were measured using the Synergy 2 plate reader (FIG. 9 and FIG. 12). […] These compounds were selected for further analysis in the in vivo studies.

[3] = Table 1 / FIG. 11, SAR around SBC-115,337

With `CNC(=O)c1ccc(NC(=O)c2ccc(NC(=O)c3oc4c(OC)cccc4c3C)cc2)cc1` the pIC50 [1, 3] was 5.26.
`COc1cccc2c(C)c(C(=O)Nc3ccc(C(=O)Nc4ccc(C5=NCCO5)cc4)cc3)oc12` gave a pIC50 [1, 3] of 4.84.
For `COc1ccc2oc(C(=O)Nc3ccc(C(=O)N(C)C)cc3)c(C)c2c1`, the pIC50 ([1]; read-out: IC50, inhibition of the PCSK9/LDLR interaction, compound concentrations 100 μM to 0.01 nM, FIG. 4) was 5.14 and the “fluorescent Dil-LDL uptake” value [2] was “increase in fluorescently labeled LDL uptake”.
`COc1cccc(NC(=O)c2ccc(NC(=O)c3oc4c(OC)cccc4c3C)cc2)c1` was tested, and the pIC50 [1, 3] was 4.73.
Molecule `COc1cccc2c(C)c(C(=O)Nc3ccc(C(=O)Nc4ccc(C(C)(C)C)cc4)cc3)oc12` has a pIC50 [1, 3] of 4.70.
`COc1ccc2oc(C(=O)Nc3ccc4c(c3)C(=O)N(C)C4=O)cc2c1` was tested, and the pIC50 [1, 3] was 5.23.

Reference: patent US10947220B2, “Anti-proprotein convertase subtilisin kexin type 9 (anti-PCSK9) compounds and methods of using the same in the treatment and/or prevention of cardiovascular diseases” (Shifa Biomedical Corporation, priority 2016, dated 2021)
